ChEMBL document CHEMBL1148804, “Enzyme adaptation to inhibitor binding: a cryptic binding site in phenylethanolamine N-methyltransferase” (J Med Chem, 2007)

Species on record: Homo sapiens
Assay: Ratio of Ki for wild type human PNMT to Ki for human PNMT K57 mutant

**Q.** Which Ratio Ki does the source give for Ic1ccc2c(c1)CNCC2 here?
**A.** Its Ratio Ki is 0.05.
